For this assay, the target named is Cholinesterase (Homo sapiens, UniProt P06276). Put plainly: Inhibition of human recombinant BuChe using butyrylthiocholine iodide as substrate incubated for 10 mins by DTNB reagent based Ellman's method. On the technique in general: Ellman's reagent forms a yellow product with free thiols.

Sequences of proteins named here, by UniProt entry; tags and fusion partners are left off.
UniProt P06276, whole entry: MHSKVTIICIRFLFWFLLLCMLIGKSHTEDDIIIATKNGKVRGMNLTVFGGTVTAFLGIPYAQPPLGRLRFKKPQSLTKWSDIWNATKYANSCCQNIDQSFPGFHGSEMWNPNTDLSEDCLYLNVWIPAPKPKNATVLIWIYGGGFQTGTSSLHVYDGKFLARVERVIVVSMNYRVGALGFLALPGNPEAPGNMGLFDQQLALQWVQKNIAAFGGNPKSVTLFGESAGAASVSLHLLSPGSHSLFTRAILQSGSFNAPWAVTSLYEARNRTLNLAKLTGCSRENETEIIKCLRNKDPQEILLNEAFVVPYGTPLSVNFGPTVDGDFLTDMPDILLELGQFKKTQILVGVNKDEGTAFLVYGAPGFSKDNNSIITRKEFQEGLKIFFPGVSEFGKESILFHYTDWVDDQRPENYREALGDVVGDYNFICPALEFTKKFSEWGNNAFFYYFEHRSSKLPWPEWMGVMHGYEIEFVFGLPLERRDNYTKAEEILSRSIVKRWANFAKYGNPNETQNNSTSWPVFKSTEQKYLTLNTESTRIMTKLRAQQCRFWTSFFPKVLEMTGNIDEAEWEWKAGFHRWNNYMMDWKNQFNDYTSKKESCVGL

For the compound `CCN(C)C(=O)Oc1cccc([C@H](C)N(C)C)c1` [RIVASTIGMINE], the IC50 was 14.2 µM.

By IC50 is commonly meant the concentration that gives 50% inhibition.
